Measurements published in US5696231A, “N-substituted glycine derivatives as enzyme inhibitors” (Corvas International, Inc., priority 1994, dated 1997).

Chains of the proteins cited; added tags and fusions are not shown. Residues count along the entry.
UniProt P00742, 235-488 limits assumed: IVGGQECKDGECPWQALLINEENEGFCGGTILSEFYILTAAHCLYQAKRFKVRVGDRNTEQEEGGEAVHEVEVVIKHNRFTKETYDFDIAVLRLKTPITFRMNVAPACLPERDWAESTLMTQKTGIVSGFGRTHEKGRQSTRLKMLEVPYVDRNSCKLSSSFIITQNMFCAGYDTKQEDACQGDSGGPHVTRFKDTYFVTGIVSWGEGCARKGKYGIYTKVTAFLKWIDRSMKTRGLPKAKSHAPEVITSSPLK
UniProt P00742, 41-179 partner limits assumed: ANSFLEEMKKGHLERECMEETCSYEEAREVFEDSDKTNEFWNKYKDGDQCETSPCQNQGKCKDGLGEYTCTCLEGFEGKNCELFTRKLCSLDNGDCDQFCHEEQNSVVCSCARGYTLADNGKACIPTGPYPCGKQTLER

These molecules were tested against purified human factor Xa (Homo sapiens, UniProt P00742) (assay: Determination of IC50: inhibition of factor Xa catalytic activity (chromogenic substrate S2765)). Conditions: purified human factor Xa 0.5 nM, S2765 250 micromolar, 30 minute incubation, HBSA pH 7.5.
Method: The compounds of the present invention are dissolved in buffer to give solutions containing concentrations such that assay concentrations range from 0 to 100 micromolar. In the assays for factor Xa, thrombin, plasmin, t-PA, aPC, chymotrypsin, and trypsin, a chromogenic synthetic substrate is added to a solution containing test compound and the enzyme of interest and the residual catalytic activity of that enzyme is determined spectrophometrically. The IC50 of a compound of the present invention is determined from the rate of substrate turnover caused by the specific enzyme being measured. IC50 is that concentration of test compound giving 50% inhibition of the rate of substrate turnover. Likewise, the Ki of a compound of the present invention is determined from the rate of substrate turnover caused by the specific enzyme being measured at various enzyme concentrations. Ki is that concentration of test compound giving 50% inhibition of the rate of substrate turnover. Examples A and B provide an exemplar of the in vitro assays used to select the compounds of the present invention.
The ability of the compounds of the present invention to act as inhibitors of factor Xa catalytic activity was assessed by determining the concentration which inhibited enzyme activity by 50%, (IC50), using the purified human factor Xa.
The buffer used for all assays was HBSA (10 mM HEPES, pH 7.5, 150 mM sodium chloride, 0.1% bovine serum albumin).
The assay was conducted by combining in appropriate wells of a Corning microtiter plate, 50 microliters of HBSA, 50 microliters of the test compound diluted in HBSA (or HBSA alone for uninhibited velocity measurement), and 50 microliters of the enzyme diluted in HBSA (prepared from purified human factor X obtained from Enzyme Research Laboratories according to the method described by Bock, P. E. et al. (1989) Archives of Biochem. Biophys. 273: 375. The enzyme was diluted into HBSA prior to the assay in which the final concentration was 0.5 nM). Following a 30 minute incubation at ambient temperature, 50 microliters of the substrate S2765 (N-alpha-benzyloxycarbonyl-D-argininyl-L-glycyl-L-arginine-p-nitroanilide dihydrochloride, obtained from Kabi Diagnostica and made up in deionized water followed by dilution in HBSA prior to the assay) was added to the wells yielding a final total volume of 200 microliters and a final concentration of 250 micromolar (about 5-times Km). The initial velocity of chromogenic substrate hydrolysis was measured by the change in absorbance at 405 nm using a Thermo Max® Kinetic Microplate Reader over a 5 minute period in which less than 5% of the added substrate was utilized. The concentration of added inhibitor which caused a decrease in the initial rate of hydrolysis was defined as the IC50 value.

Compared with `CN(CC(=O)N[C@H](C=O)CCCNC(=N)N)C(=O)[C@@H](CCCNC(=N)N)NS(=O)(=O)Cc1ccccc1`, `CN(CC(=O)N[C@H](C=O)CCCNC(=N)N)C(=O)[C@@H](CCS(C)(=O)=O)NS(=O)(=O)Cc1ccccc1` is 370-fold higher in IC50: 1.7 nM for the first, 637 nM for the second. The first is the more potent here.

Compared with `CN(CC(=O)NC(C=O)CCCNC(=N)N)C(=O)CNS(=O)(=O)CC12CCC(CC1=O)C2(C)C` (stereo not shown), `CN(CC(=O)NC(C=O)CCCNC(=N)N)C(=O)C(CC(=O)O)NS(=O)(=O)CC12CCC(CC1=O)C2(C)C` (stereo not shown) is 130-fold lower in IC50: 614 nM for the first, 4.6 nM for the second. The second is the more potent here.

Compared with `CN(CC(=O)NC(C=O)CCCNC(=N)N)C(=O)C(Cc1cccnc1)NS(=O)(=O)Cc1ccccc1` (stereo not shown), `CN(CC(=O)NC(C=O)CCCNC(=N)N)C(=O)C(Cc1cccnc1)NS(=O)(=O)CC12CCC(CC1=O)C2(C)C` (stereo not shown) is 9.2-fold lower in IC50: 926 nM for the first, 101 nM for the second. The second is the more potent here.

`CN(CC(=O)N[C@H](C=O)CCCNC(=N)N)C(=O)[C@@H](CCCNC(=N)N)NS(=O)(=O)CC12CCC(CC1=O)C2(C)C` (stereo partly shown) and `CN(CC(=O)NC(C=O)CCCNC(=N)N)C(=O)C(CS(=O)(=O)CC(=O)O)NS(=O)(=O)CC12CCC(CC1=O)C2(C)C` (stereo not shown) are within 1.5-fold of each other in IC50: 8.2 nM for the first, 7.3 nM for the second.

Compared with `COC(=O)c1ccccc1S(=O)(=O)N[C@H](CCCNC(=N)N)C(=O)N(C)CC(=O)N[C@H](C=O)CCCNC(=N)N`, `CS(=O)(=O)CCC(NS(=O)(=O)Cc1ccccc1)C(=O)N(CC(=O)NC(C=O)CCCNC(=N)N)C1CCCCC1` (stereo not shown) is lower in IC50: 32 nM for the first, less than 25 nM for the second. The second is the more potent here.
